Assay results published in BindingDB's records for US9315514.

Sequences of proteins named here, by UniProt entry; tags and fusion partners are left off.
UniProt P35372, whole entry: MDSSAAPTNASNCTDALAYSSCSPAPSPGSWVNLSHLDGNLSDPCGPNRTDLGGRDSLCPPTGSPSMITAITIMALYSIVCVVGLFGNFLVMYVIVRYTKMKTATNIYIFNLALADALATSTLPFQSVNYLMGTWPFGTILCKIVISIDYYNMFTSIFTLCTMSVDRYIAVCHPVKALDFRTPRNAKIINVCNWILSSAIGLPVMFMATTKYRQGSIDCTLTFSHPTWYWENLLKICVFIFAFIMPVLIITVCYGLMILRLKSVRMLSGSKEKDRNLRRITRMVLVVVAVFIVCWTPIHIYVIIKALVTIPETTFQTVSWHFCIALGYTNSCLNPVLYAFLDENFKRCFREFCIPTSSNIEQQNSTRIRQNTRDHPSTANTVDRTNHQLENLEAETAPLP

Target: Mu-type opioid receptor (Homo sapiens, UniProt P35372)
Experiment: μ-Opioid Receptor Binding Assay
Settings: pH 7.4

Row | Structure (SMILES) | Ki
1 | CCC1O[C@]23CC[C@@]4(C[C@@H]2[C@@](C)(C(C)(C)C)O1)[C@H]1Cc2ccc(O)c5c2[C@@]4(CCN1CC1CC1)[C@H]3O5 (some centres undefined) | 0.35 nM
2 | CCCC1O[C@]23CC[C@@]4(C[C@@H]2[C@@](C)(C(C)(C)C)O1)[C@H]1Cc2ccc(O)c5c2[C@@]4(CCN1CC1CC1)[C@H]3O5 (some centres undefined) | 0.54 nM
3 | CC(C)(C)[C@@]1(C)OCO[C@]23CC[C@@]4(C[C@@H]21)[C@H]1Cc2ccc(O)c5c2[C@@]4(CCN1CC1CC1)[C@H]3O5 | 0.45 nM
4 | CC(C)(C)[C@@]1(C)OC(c2ccccc2)O[C@]23CC[C@@]4(C[C@@H]21)[C@H]1Cc2ccc(O)c5c2[C@@]4(CCN1CC1CC1)[C@H]3O5 (some centres undefined) | 2.26 nM
